Reference: article PMC4773911 (Journal of the American Chemical Society, 2015)

Test system: serine hydrolases
Assay type: binding, mouse
Conditions: 1 μM; including ABHD6 and ABHD12

CCCCCCCCCCC[C@@H](C[C@@H]1OC(=O)[C@H]1CCCCCC)OC(=O)[C@H](CC(C)C)NC=O [THL]
number of serine hydrolases whose labeling was blocked: at least 4
